Structures are written as SMILES.

The assay deals with ES cell-derived neural progenitors. The following applies: compared with DDM. Here is the method: Experimental procedures were as described in Example 1. […] Ethanol was used as control.
For long term pulse chase experiments, BrdU (Becton Dickinson) was added to the differentiation medium on the different days during 24 h at a final concentration of 10 μM. Cells were dissociated after 21 days of differentiation and plated on coated coverslips for an additional day. For short-term BrdU uptake experiments, BrdU was added to the differentiation medium during 1 hour prior to cell dissociation and replating.
For BrdU detection, medium was removed and cells were rinsed with PBS then fixed for 30 min in 4% paraformaldehyde (PFA) in PBS, pH 7.4 at 4° C. PFA was removed and cells were rinsed three times with PBS. BrdU was unmasked using an antigen retrieval method: cells were boiled during 4×5 minutes in 10 mM citrate buffer (pH 6.0) and cooled down to room temperature during 20 minutes. Immunostaining was performed as described above using mouse anti-BrdU (1/50, Becton Dickinson) or rat anti-BrdU (1/250, Abcam) antibodies. Multiple labelling was performed sequentially as described above.

On to `CC1=C2C[C@H]3[C@@H](CC=C4C[C@@H](O)CC[C@@]43C)[C@@H]2CC[C@]12O[C@@H]1C[C@H](C)CN[C@H]1[C@H]2C` [cyclopamine], for which the “Effect on proliferative or survival rates of the neural lineage” value was “did not have any major effect”.
